The values that follow come from US11267812B2 (Mirati Therapeutics, Inc., priority 2016, dated 2022).

In this assay the target is KRas G12C (Homo sapiens, UniProt P01116, C118S/C51S/C80L/G12C). Put plainly: KRas G12C Modification Assay (LCMS detection of covalent adduct). In kind it is binding. As to conditions: 5 μM compound, 3 hours. How it is done:
Usual assay endpoints were 15, 180 and 1440 minutes.
Turning to `C=CC(=O)N1CCN(c2nc(OC[C@@H]3CCCN3C)nc3c2CCN(c2cccc4ccccc24)C3)CC1` [Example 200, (S)-1-(4-(2-((1-methylpyrrolidin-2-yl)methoxy)-7-(naphthalen-1-yl)-5,6,7,8-tetrahydropyrido[3,4-d]pyrimidin-4-yl)piperazin-1-yl)prop-2-en-1-one], the “POC (normalized percent of control, KRas G12C modification)” value is reported as “C (“C”>50% POC)”.
Take `C=CC(=O)N1CCN(c2nc(OC[C@@H]3CCCN3C)nc3c2CCN(c2cc(O)cc4ccccc24)C3)CC1` [Example 127, (S)-1-(4-(7-(3-hydroxynaphthalen-1-yl)-2-((1-methylpyrrolidin-2-yl)methoxy)-5,6,7,8-tetrahydropyrido[3,4-d]pyrimidin-4-yl)piperazin-1-yl)prop-2-en-1-one]: the “POC (normalized percent of control, KRas G12C modification)” value was “C (“C”>50% POC)”.
As to `C=CC(=O)N1CCN(c2nc(OC[C@H]3CCCN3C)nc3c2CCN(c2cc(O)cc4ccccc24)C3)CC1` [Example 187, (R)-1-(4-(7-(3-hydroxynaphthalen-1-yl)-2-((1-methylpyrrolidin-2-yl)methoxy)-5,6,7,8-tetrahydropyrido[3,4-d]pyrimidin-4-yl)piperazin-1-yl)prop-2-en-1-one], the “POC (normalized percent of control, KRas G12C modification)” value is recorded as “C (“C”>50% POC)”.
